# An excerpt weighted towards active compounds, which were near 1.3% of everything screened.
# ERAP1 HTS inh: ERAP1 (human) enzyme inhibition; 0.15% of 340,000 active; inhibition, % at 10.7 µM; AID 652197; recombinant ERAP1, Leu-AMC fluorescence, 60 min;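 active means mean replicate inhibition of at least 30%, or all replicates individually reaching that 30% level; inactive means mean below 30% and not every replicate reaching it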;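 further: 0% = neutral control wells and 100% = L-leucinethiol positive control wells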
# ARNT-TACC3 inh: disrupts binding between human ARNT and TACC3; 0.66% of 390,000 active; inhibition, % at 9.99 µM; AID 623870; Q9Y6A5; AlphaScreen His-ARNT PAS-B/GST-TACC3 binding, luminescence; TACC3 fragment carries E629A point mutation;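 active means mean inhibition of replicates at least 50% and at least half of replicates each reaching 50%; inconclusive means half or more replicates reach 50% but mean below 50%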;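 further: 0% = complete ARNT plus TACC3 wells and 100% = ARNT alone without TACC3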
# AF4-AF9 inh: inhibitors of human MLL-AF4/AF9 interaction | 0.47% of 350,000 active | inhibition, % at 10 µM | AID 651704 | P42568 | AlphaScreen, biotin-AF4 peptide binding to FLAG-AF9;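 active means every replicate reaching a set inhibition limit, whatever the replicate mean, cut at about 25% in these data; inconclusive means mean inhibition reaches that limit but some replicates miss it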;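 further: 0% = plate neutral control median and 100% = total signal loss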
# S100A4 inh HTS: S100A4-myosin IIA interaction inhibition | 0.14% of 360,000 active | AID 652163 | inhibition, % at 10.7 µM | P26447 | S100A4/TAMRA-MyoIIA peptide fluorescence polarization;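 active means mean inhibition of at least 70% across replicates, with every replicate also reaching that level; inconclusive means mean inhibition reaches 70% but some replicates fall short; inactive means mean inhibition below 70%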
#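 Test system: S100A4 monomer protein. Medium: HEPES buffer with Ca2+, pH 7.2. Reagent: fluorescent myosin IIA peptide, 5 nM. Compound dosing: single-point compound testing. Timing: 5 min between mix addition and reading. Benchmarks: DMSO neutral and TFP positive wells.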
# E-selectin induc: induces E-selectin expression in human endothelial cells; 0.37% of 260,000 active; activation, % at 7.58 µM; AID 686992; HUVEC E-selectin immunofluorescence imaging; normalized: neutral wells 0, TNF-alpha wells 100;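 active means mean E-selectin-positive cell signal at least 10% of the positive control, reached in at least 60% of replicates, without over 20% cell loss; inconclusive means no rule given, readout overlaps actives, possibly toxicity-flagged; inactive means the rest, including those meeting only one limit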
#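 Read-out basis: % PE-positive cells; Test system: HUVEC primary endothelial cells; Technique: immunofluorescence imaging; Dosing: single-point compound dose.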
# UUG fidelity: modulators of yeast start codon fidelity, primary screen, whole organism, S. cerevisiae, single point, plate reader | AID 602363, 2012 | S. cerevisiae UUG-firefly luciferase reporter, luminescence/redox ratio | activity score, % at 18.7 µM | hit rate 0.13% among 350,000;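 active = replicate mean at a twofold rise or more, about +100% in these data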;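 also: firefly luciferase made from a UUG start codon reports start codon fidelity; reporter light over untreated wells divided by growth signal over untreated wells; some hits fall short of that in this replicate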
# AlphaScreen ctr: interferes with AlphaScreen signal, flagging false ARNT-TACC3 hits. shares compounds with ARNT-TACC3 inh. His-ARNT PASB-GST AlphaScreen artifact counter-screen, luminescence. AC50, µM (top dose mostly 68 µM), for inactives: at the highest dose activity change, negative = signal decrease. 50% of 1,200 active. AID 651705;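 active means every separate test run was called active for a drop in luminescence, with AC50 within twice the top valid dose, actives reach about 71 µM in these data; inconclusive means the separate test runs disagree in their calls; inactive means all runs inactive, including signal change in the wrong direction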
# An asterisk follows results filed as active; ? = inconclusive; nt = no result given; [ ] = remark or other dose.
SMILES,ERAP1 HTS inh,ARNT-TACC3 inh,AF4-AF9 inh,S100A4 inh HTS,E-selectin induc,UUG fidelity,AlphaScreen ctr
COc1ccc2c3c([nH]c2c1)[C@H](CO)N(C(=O)C1CCCC1)CC31CN(C(=O)c2ccncc2)C1,2.9,nt,0.7,-4.0,-0.3,nt,nt
Cc1ccc(S(=O)(=O)Nc2nncs2)cc1,nt,-11.6,nt,nt,nt,-12.8,nt
CCCc1nnc(NS(=O)(=O)c2ccc(C)cc2)o1,2.5,63.5*,-2.9,9.6,-0.3,-13.5,-0.3%
CCCNC(=O)N1C[C@@H]2[C@H](c3ccccc31)[C@H](CO)N2C(=O)c1ccncc1,-1.2,-5.6,-1.1,-27.3,0.4,-4.4,nt
COc1cc(OC)c2c(=O)c(OC)c(-c3ccc(OC)c(OC)c3)oc2c1,nt,nt,nt,nt,nt,-15.2,nt
COc1ccc(-c2oc3cc(O)c(OC)c(O)c3c(=O)c2OC)cc1O,12.0,56.2*,-1.1,2.0,2.6,nt,-37.4%
CC1(C)C(=O)Nc2ccccc2N1C(=O)COC(=O)c1ccc([N+](=O)[O-])o1,2.7,-5.6,-1.9,-1.0,-0.1,-8.4,nt
COCCn1c(C)cc(C(=O)COC(=O)c2ccc([N+](=O)[O-])o2)c1C,-2.1,52.2*,2.8,2.6,0.0,-62.3,-16.1%
CC1CCN(C(=O)COC(=O)c2ccc([N+](=O)[O-])o2)CC1,0.5,17.6*,-3.4,1.9,-0.6,-15.3,-4.5%
Cc1cc(C(=O)COC(=O)c2ccc([N+](=O)[O-])o2)c(C)n1CC1CCCO1 (stereo not drawn),-1.2,11.5,-2.7,20.6,-1.5,-37.8,nt
O=C1CN(C(=O)COC(=O)c2ccc([N+](=O)[O-])o2)c2ccccc2N1,2.3,41.6*,0.5,-11.8,3.0,2.3,-1.4%
C[C@@H]1CN([C@H](C)CO)S(=O)(=O)c2ccc(/C=C/c3ccccc3)cc2O[C@H]1CN(C)C(=O)CN1CCOCC1,-0.9,4.0,5.8,-3.7,0.0,nt,nt
Cc1[nH][nH]c(=O)c1C(c1ccc(-c2ccccc2C(=O)O)o1)c1c(C)[nH][nH]c1=O,-2.3,53.7*,-0.6,-0.9,-0.8,nt,-12.4%
C[C@H](CO)N1C[C@H](C)[C@@H](CN(C)S(=O)(=O)c2ccc(Cl)cc2)Oc2c(NC(=O)Nc3cccc4ccccc34)cccc2C1=O,0.9,52.3*,1.8,2.2,0.1,-11.2,23.8µM*
C[C@@H]1CN([C@@H](C)CO)C(=O)c2cccc(NC(=O)c3ccncc3)c2O[C@@H]1CN(C)Cc1ccc(-c2ccccc2)cc1,4.5,-1.6,3.3,6.9,-0.3,-5.6,nt
CC(C)NC(=O)Nc1cccc2c1O[C@H](CN(C)C(=O)Nc1ccc(C(F)(F)F)cc1)[C@@H](C)CN([C@@H](C)CO)C2=O,-9.1,active,-4.7,6.0,0.9,26.7,-7.0%[42 µM]
C[C@H](CO)N1C[C@H](C)[C@H](CN(C)S(=O)(=O)c2ccc(F)cc2)Oc2ccc(NS(C)(=O)=O)cc2C1=O,1.4,-1.7,-2.1,-1.8,-2.9,-5.5,nt
C[C@@H]1CN([C@H](C)CO)C(=O)c2cccc(NC(=O)c3ccncc3)c2O[C@@H]1CN(C)Cc1ccc(-c2ccccc2)cc1,7.6,active,4.8,2.3,15.9,19.3,-0.2%[42 µM]
C[C@@H]1CN([C@H](C)CO)C(=O)c2cc(NS(C)(=O)=O)ccc2O[C@@H]1CN(C)S(=O)(=O)c1ccc(F)cc1,0.8,active,-2.4,1.2,-2.8,9.9,-12.4%[38 µM]
C[C@@H]1CN([C@H](C)CO)C(=O)Cc2cc(NC(=O)C3CCCCC3)ccc2O[C@H]1CN(C)C(=O)NC1CCCCC1,-0.1,-0.4,-0.9,8.0,-3.8,4.6,nt
CNC[C@@H]1Oc2c(NS(=O)(=O)c3cccs3)cccc2C(=O)N([C@@H](C)CO)C[C@H]1C,2.4,active,-11.7,3.6,-0.1,17.9,3.5%[42 µM]
CNC[C@@H]1Oc2c(NS(=O)(=O)c3cccs3)cccc2C(=O)N([C@H](C)CO)C[C@@H]1C,-1.2,-1.4,-1.6,-58.1,0.7,-3.1,nt
Cc1[nH][nH]c(=O)c1C(c1ccc(Br)cc1)c1c(C)[nH][nH]c1=O,-1.9,11.3*,3.0,-5.0,2.8,-20.4,-2.1%
COc1ccc(C(c2c(C)[nH][nH]c2=O)c2c(C)[nH][nH]c2=O)cc1Br,0.5,20.2,0.3,-42.5,-0.3,-23.6,nt
Cc1[nH][nH]c(=O)c1C(c1ccc(O)c(Br)c1)c1c(C)[nH][nH]c1=O,-2.5,33.1*,2.5,1.1,?,-16.8,-34.3%
O=C(C[C@@H]1C=C[C@@H](NS(=O)(=O)c2ccc(F)cc2)[C@H](CO)O1)NC1CCC1,-2.9,-32.4,-2.7,2.5,0.7,-3.0,nt
O=C1CN(S(=O)(=O)Cc2ccccc2)C[C@@H]2[C@H](c3ccc(C#CC4CC4)cc3)[C@@H](CO)N12,0.2,nt,4.3,4.0,-0.1,nt,nt
C[C@@H]1CCCCO[C@@H](CN(C)Cc2ccncc2)[C@H](C)CN([C@@H](C)CO)C(=O)c2cc(NC(=O)Nc3ccc4c(c3)OCO4)ccc2O1,2.3,11.1,4.9,7.1,-0.1,5.9,nt
NS(=O)(=O)c1ccc(CCNC(=O)c2ccc(=O)[nH]c2)cc1,-2.4,-5.1,-1.3,-6.0,-0.2,-4.5,nt
O=C(NCCc1ccccc1)c1ccc(=O)[nH]c1,nt,active,nt,nt,nt,nt,-5.4%
COc1cc(/C=N/NC(=O)c2cncc(Br)c2)cc([N+](=O)[O-])c1O,nt,58.3*,10.1,-4.4,-0.2,-30.2,35.9µM*
CCc1ccc2c(c1)NC(=O)C2(C)Cc1ccc(F)cc1 (stereo not drawn),0.5,nt,-2.9,-3.3,0.2,-2.6,nt
CCc1ccc2c(c1)C1(NN=C(c3ccc(C)cc3)S1)C(=O)N2 (stereo not drawn),nt,61.0*,nt,nt,nt,-43.3,2.78µM*
N#CCC(=O)N/N=C\c1ccccc1OC/C=C/c1ccccc1,-1.4,63.7*,-0.6,-2.0,0.2,-12.6,54.6µM*
COCC(=O)N/N=C\c1ccccc1OC/C=C/c1ccccc1,-0.1,6.3,0.5,1.5,1.9,-11.5,nt
O=C(NCC[C@@H]1CC[C@H](NC(=O)C2CCCC2)[C@@H](CO)O1)c1cc(Cl)cc(Cl)c1,-3.9,3.9,0.6,6.5,-0.9,3.0,nt
Nc1cc2cccnc2cc1Cl,1.1,53.5*,1.9,-1.0,0.2,-19.6,-13.2%
CN(C)C(=O)c1cccc(-c2ccc3c(c2)[C@@H]2[C@@H](CCN2C(=O)c2ccccc2F)[C@@H](CO)N3)c1,nt,-6.0,0.8,nt,-0.5,-7.5,nt
Clc1ccc(OCc2nc3ccccc3[nH]2)cc1,-2.2,2.9,-1.3,4.7,10.3,-29.4,nt

# Three compounds out of the list, arranged by number of heavy atoms, falling:
SMILES,ERAP1 HTS inh,ARNT-TACC3 inh,AF4-AF9 inh,S100A4 inh HTS,E-selectin induc,UUG fidelity,AlphaScreen ctr
CN(C)C(=O)c1cccc(-c2ccc3c(c2)[C@@H]2[C@@H](CCN2C(=O)c2ccccc2F)[C@@H](CO)N3)c1,nt,-6.0,0.8,nt,-0.5,-7.5,nt
CCc1ccc2c(c1)C1(NN=C(c3ccc(C)cc3)S1)C(=O)N2 (stereo not drawn),nt,61.0*,nt,nt,nt,-43.3,2.78µM*
CCc1ccc2c(c1)NC(=O)C2(C)Cc1ccc(F)cc1 (stereo not drawn),0.5,nt,-2.9,-3.3,0.2,-2.6,nt

# Another view of some results above:
# Second line of a record: ERAP1 HTS inh	ARNT-TACC3 inh	AF4-AF9 inh	S100A4 inh HTS	E-selectin induc	UUG fidelity	AlphaScreen ctr
Cc1cc(C(=O)COC(=O)c2ccc([N+](=O)[O-])o2)c(C)n1CC1CCCO1 (stereo not drawn)
→ -1.2	11.5	-2.7	20.6	-1.5	-37.8	nt
N#CCC(=O)N/N=C\c1ccccc1OC/C=C/c1ccccc1
→ -1.4	63.7*	-0.6	-2.0	0.2	-12.6	54.6µM*

# Source: PubChem BioAssay (Broad Institute)
